Measurements published in patent US9988341B2, “Bacterial topoisomerase inhibitors and use thereof” (THE FLORIDA INTERNATIONAL UNIVERSITY BOARD OF TRUSTEES, priority 2016, dated 2018).
Values after ≈ are worked out from the molar mass of the structure shown.

Legend:
[1] = tested on: M. smegmatis mc2 155; experiment: M. smegmatis growth inhibition (MIC)
[2] = tested on: HEK; experiment: HEK toxicity

Row | SMILES | MIC, μM M. smegmatis mc2 155 [1] | Percent HEK toxicity 6.25 μg/mL [2]
1 | CNCCCC[C@H](CN)NC[C@H](CCCNC(=N)N)NCc1cccc2ccccc12 | 25 µM (≈ 10.7 µg/mL) | 18.7%
2 | CCC[C@H](CN[C@H](CN)CCCCNC)NCCc1cccc2ccccc12 | 50 µM (≈ 19.2 µg/mL) | 16.6%
3 | CNCCCC[C@H](CN)NC[C@H](CCCCNC)NCCc1cccc2ccccc12 | 25 µM (≈ 10.7 µg/mL) | 5.2%
4 | CNCCCC[C@@H](CN)NC[C@H](CCCCNC)NCCc1cccc2ccccc12 | 50 µM (≈ 21.4 µg/mL) | 20.9%
5 | CNCCCC[C@@H](CN[C@H](CN)CCCN)NCCc1cccc2ccccc12 | 50 µM (≈ 20 µg/mL) | 17.0%
6 | CNCCCC[C@@H](CN)NC[C@H](CCCNC(=N)N)NCCc1cccc2ccccc12 | 25 µM (≈ 11 µg/mL) | 10.0%
7 | CCC[C@H](CN[C@H](CN)CCCN)NCCc1cccc2ccccc12 | 50 µM (≈ 17.8 µg/mL) | 8.2%
8 | CCC[C@H](CN[C@@H](CN)CCCCNC)NCc1cccc2ccccc12 | 50 µM (≈ 18.5 µg/mL) | 11.7%
9 | N=C(N)NCCC[C@@H](CN[C@H](CN)CCCN)NCCc1cccc2ccccc12 | 50 µM (≈ 20.7 µg/mL) | 16.3%
